Data as given in PMC7467243, “Response to and recovery from treatment in human liver-mimetic clinostat spheroids: a model for assessing repeated-dose drug toxicity” (Toxicology Research, 2020).

Experiments:
[1] = cited from earlier work
HepG2–C3A spheroids = details: 0.04 mg/mg dose, after 48 h
Experimental: Three hundred 21-day old spheroids (corresponding to ~25 million cells or 3.5 mg protein) were gently pipetted (using a cut-tip) into each 10 ml bioreactor before treatment to provide ample material for analysis. To initiate drug treatment, the bioreactor rotation was stopped for 30 s to allow the spheroids to settle to the bottom of the bioreactor. […] Each narrow range experiment was carried out in duplicate and ATP was measured in technical triplicates for each sample. […] Data were normalized to the vehicle-treated control. Error bars in the figures show standard deviation.
Cell viability was measured based on their ability to produce ATP [37]. […] The cells were then lysed with 100 μl of lysis buffer (CellTiter-Glo luminescent cell viability assay, Promega, Fitchburg, WI, Cat. no. G7571) and shaken in the dark for 20 min. Before the luminescence was measured in a FluoStar OPTIMA (BMG Labtech, Ortenberg, Germany) using the following parameters: one kinetic window, 10 measurement cycles with 0.3 s of measurement interval time, 2-s delay per measurement, additional 0.5-s delay per position change (repeated twice for each measured plate). Replicates were performed as described under the ‘Drug treatment’ Section. The data were normalized with reference to a standard curve for ATP and to the untreated control.

[2] = cited from earlier work; remark: listed apart in the source

SMILES	DILI rank (risk to induce drug-induced liver injury) [1]	ATP produced relative to vehicle control (HepG2–C3A spheroids) [%]	Toxic dose, μg/ml in blood [2] [µg/mL]
O=C(O)Cc1ccccc1Nc1c(Cl)cccc1Cl [Diclofenac]	vMost DILI	–	–
[H]/N=C(/N)N/C(=N/[H])NCCc1ccccc1 [Phenformin]	–	81	0.6
